Experimental data: patent US10683278B2 (JINAN UNIVERSITY, priority 2015, dated 2020)
Several values for one entry are separate records, joined by “and”; a condition that tells them apart may be missing. Equal values may be shown once.

Protein sequences, listed by entry. Tags and fused reporters are not part of them. Residues count along the entry.
UniProt P30530, 26-894 limits assumed: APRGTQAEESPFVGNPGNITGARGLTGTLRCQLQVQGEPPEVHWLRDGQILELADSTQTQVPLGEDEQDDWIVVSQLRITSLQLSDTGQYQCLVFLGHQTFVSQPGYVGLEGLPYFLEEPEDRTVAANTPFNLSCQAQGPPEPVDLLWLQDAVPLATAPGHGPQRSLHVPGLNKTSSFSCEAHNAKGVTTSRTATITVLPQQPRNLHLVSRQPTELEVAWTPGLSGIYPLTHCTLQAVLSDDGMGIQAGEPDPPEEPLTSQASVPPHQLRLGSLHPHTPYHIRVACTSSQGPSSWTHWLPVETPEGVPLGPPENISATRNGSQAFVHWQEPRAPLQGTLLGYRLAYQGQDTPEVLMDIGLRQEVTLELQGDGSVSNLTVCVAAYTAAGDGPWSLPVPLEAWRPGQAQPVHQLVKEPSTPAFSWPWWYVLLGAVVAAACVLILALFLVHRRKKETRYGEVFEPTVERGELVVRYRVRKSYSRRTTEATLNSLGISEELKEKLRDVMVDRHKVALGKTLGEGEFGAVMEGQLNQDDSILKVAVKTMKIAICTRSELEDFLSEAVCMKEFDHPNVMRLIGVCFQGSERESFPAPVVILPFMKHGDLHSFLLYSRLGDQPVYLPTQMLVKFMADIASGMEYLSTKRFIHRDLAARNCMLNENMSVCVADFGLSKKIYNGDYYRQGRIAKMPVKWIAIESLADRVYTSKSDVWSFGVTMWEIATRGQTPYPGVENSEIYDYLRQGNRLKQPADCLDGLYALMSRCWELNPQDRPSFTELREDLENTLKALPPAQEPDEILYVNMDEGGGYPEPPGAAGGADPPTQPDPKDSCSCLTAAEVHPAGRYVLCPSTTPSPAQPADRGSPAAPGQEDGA
UniProt P36888, 610-943 limits assumed: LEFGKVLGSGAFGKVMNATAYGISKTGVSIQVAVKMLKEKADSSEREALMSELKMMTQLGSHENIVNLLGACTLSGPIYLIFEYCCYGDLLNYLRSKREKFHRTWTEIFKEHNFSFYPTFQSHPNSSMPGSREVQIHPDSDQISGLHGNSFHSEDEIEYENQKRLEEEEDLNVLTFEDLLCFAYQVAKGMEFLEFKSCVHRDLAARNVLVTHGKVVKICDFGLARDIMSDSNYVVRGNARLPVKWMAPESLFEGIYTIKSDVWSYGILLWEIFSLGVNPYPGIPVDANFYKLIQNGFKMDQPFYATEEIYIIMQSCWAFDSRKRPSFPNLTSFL

Assays:
AXL kinase = AXL kinase (Homo sapiens, UniProt P30530); experiment: IC50 test on AXL kinase (Z′-LYTE FRET kinase activity detection); format: biochemical; details: read-out: AXL IC50; Z′-LYTE FRET peptide assay, 1 h reaction
[1] = biological target: FLT-3 kinase domain recombinant protein (Homo sapiens, UniProt P36888); experiment: Inhibition rate on FLT3 kinase (ELISA); details: two values per compound

Question: How did the IC50 (AXL kinase) turn out when `CCc1ccc2c(c1)c(=O)c(C(=O)Nc1ccc(Oc3ncnc4[nH]cc(-c5ccccc5)c34)cc1F)c(C)n2C` was run?
Answer: The IC50 was 42 nM.

Question: What about the “Inhibition rate (%) against receptor tyrosine kinase FLT-3” value (from here on “Inhibition rate (%)”) ([1]; compound 10 nM, 0.01 µM) of the same compound?
Answer: Its value is 46.9% and 50.0%.

Question: What about the “Inhibition rate (%)” value ([1]; compound 100 nM, 0.1 µM) of the same compound?
Answer: Its value is 47.1% and 53.6%.

Question: And the “Inhibition rate (%)” value ([1]; compound 1000 nM, 1 µM)?
Answer: The value was 81.8% and 67.6%.
